# Values of other authors, collected in patent US20240100008A1, “ADMINISTRATION OF GLYCEROL TRIBENZOATE AND GLYCEROL PHENYLBUTYRATE FOR TREATMENT OF NEURODEGENERATIVE AND UREA CYCLE DISORDERS” (Rush University Medical Center, priority 2020, published 2024).
# Settings: in vivo
substance,measurement,value
glyceryl dibenzoate,release form of sodium benzoate,sustained-release and a slow-release form
